Consider 1 substance from patent US20220347267A1, “METHODS TO IMPROVE PATIENT RESPONSE TO IMMUNE CHECKPOINT INHIBITORS AND FUNCTIONAL TESTS TO PREDICT RESPONSE” (Biomarker Strategies, LLC, priority 2019, published 2022).

Common to all, as to assay type: cell-based, human
The test system of test [1] is various NSCLC, HNSCC, breast cancer, melanoma, colorectal cancer, and pancreatic cancer cell lines. Nature of the test: PD-L1 western blot after modulators, summary over all samples. The following applies: depending on the sample, summary of Table 3. An excerpt:
Cell lines were acquired from ATCC, Sigma, or DSMZ. Human non-small cell lung carcinoma (NSCLC) cell lines H292 (ATCC no. CRL-1848.), H1299 (ATCC no. CRL-5803), H520 (ATCC no. CRL-5811), CALU6 (ATCC no. HTB-56), H1975 (ATCC no. CRL-5908), H460 (ATCC no. HTB-177), H2126 (ATCC no. CCL-256), H1650 (ATCC no. CRL-5883), and H2087 (ATCC no. CRL-5922) were used for this experiment along with head and neck squamous cell carcinoma (HNSCC) cell lines BHY (DSMZ ACC 404), CAL27 (ATCC no. CRL-2095), KYSE410 (Sigma), and A253 (ATCC no. HTB-41), melanoma cell lines A375 (ATCC no. CRL-1619), COL0853 (Sigma), and MM127 (Sigma) pancreatic cancer cell lines BXPC3 (ATCC no. […] Cell viability was measured using trypan blue exclusion staining in conjunction with the Countess II Automated Cell Counter (Thermo Fischer Scientific; cat. no. AMQAX1000). Measurements were made in duplicate and the average number of viable cells was recorded prior to experiments. […]
To determine the effects of the aforementioned molecules on the modulation of PD-L1, we selected various NSCLC, HNSCC, breast cancer, melanoma, colorectal cancer, and pancreatic cancer cell lines as examples. Other diseases or cell lines could be used readily as could more complex samples such as cells isolated from xenografts and clinical samples. […] Other conditions can be readily used, such as processing on automated systems such as SnapPath. […]

The subject of the next test is H1650 cells. The experiment in a line: PD-L1 western blot after modulators (EM and MTAs). The following applies: NSCLC H1650, 30 minutes, 3 hours, 24 hours. The source says: (§1) Cell lines were acquired from ATCC, Sigma, or DSMZ. Human non-small cell lung carcinoma (NSCLC) cell lines H292 (ATCC no. CRL-1848.), H1299 (ATCC no. CRL-5803), H520 (ATCC no. CRL-5811), CALU6 (ATCC no. HTB-56), H1975 (ATCC no. CRL-5908), H460 (ATCC no. HTB-177), H2126 (ATCC no. CCL-256), H1650 (ATCC no. CRL-5883), and H2087 (ATCC no. CRL-5922) were used for this experiment along with head and neck squamous cell carcinoma (HNSCC) cell lines BHY (DSMZ ACC 404), CAL27 (ATCC no. CRL-2095), KYSE410 (Sigma), and A253 (ATCC no. HTB-41), melanoma cell lines A375 (ATCC no. CRL-1619), COL0853 (Sigma), and MM127 (Sigma) pancreatic cancer cell lines BXPC3 (ATCC no. CRL-1687), colorectal cancer cell lines […], HCT116 (ATCC no. CCL-247EMT), and breast cancer cell lines BT549 (ATCC no. HTB-122), BT20 (ATCC no. HTB-19), and T47D (ATCC no. HTB-133). Cells were maintained in manufacturer-recommended conditions at 37° C. inside humidified 5% CO2 incubators. Sub-cultivation and harvesting for all cell lines were performed using Accutase (GIBCO Life Technologies; cat. no. A1110501) at 37° C. for 10 minutes. Cell viability was measured using trypan blue exclusion staining in conjunction with the Countess II Automated Cell Counter (Thermo Fischer Scientific; cat. no. AMQAX1000). Measurements were made in duplicate and the average number of viable cells was recorded prior to experiments.
(§2) Enhancer Molecule and Therapies: IFNγ, (10 ng/ml; Sigma Aldrich, cat.no 11040596001), TNFα (10 ng/ml; BD Biosciences cat. no. 554618), Osimertinib (100 ng/ml; Selleckchem cat.no. S7297), Everolimus (100 ng/ml; Selleckchem cat.no S1120), GSK458 (10 ng/ml; Selleckchem cat. no. S2658), TNFb (50 ng/ml; Sigma Aldrich cat. no.), GSK795 (1,000 ng/ml; Selleckchem cat. no. S7492), IL-12 (50 ng/ml; Sigma Aldrich SRP3073), GM-CSF (50 ng/ml; Sigma Aldrich cat. no. G5035), IL-1a (1 ng/ml; Sigma Aldrich cat. no. 12778-), IL-6 (50 ng/ml; Sigma Aldrich), IL-17 (100 ng/ml; Sigma Aldrich cat. no. SRP3080), TGFb (1 ng/ml; Sigma Aldrich cat. no. T7039), and IL-10 (50 ng/ml; Sigma Aldrich cat. no. […]
(§3) To determine the effects of the aforementioned molecules on the modulation of PD-L1, we selected various NSCLC, HNSCC, breast cancer, melanoma, colorectal cancer, and pancreatic cancer cell lines as examples. Other diseases or cell lines could be used readily as could more complex samples such as cells isolated from xenografts and clinical samples. […] Other conditions can be readily used, such as processing on automated systems such as SnapPath. […] Aliquots of protein lysates were prepared and then stored at −80° C. until protein quantification and Western blot analysis was to be conducted. […]
In general terms: A western blot detects proteins with antibodies after separation by electrophoresis.

In another test the test system is BT549 cells. The experiment in a line: PD-L1 western blot after modulators (EM and MTAs). The conditions noted are these: Breast BT549, 30 minutes, 3 hours, 24 hours.
Text: as §1, §2, §3

The test system of the next test is H460 cells. The experiment in a line: PD-L1 western blot after modulators (EM and MTAs). The conditions noted are these: NSCLC H460, 30 minutes, 3 hours, 24 hours.
Text: as §1, §2, §3

The subject of another test is H292 cells. The experiment in a line: PD-L1 western blot after modulators (EM and MTAs). The conditions noted are these: NSCLC H292, 30 minutes, 3 hours, 24 hours.
Text: as §1, §2, §3

“TNFa: Recombinant human TNF-a, modulator (10 ng/ml; BD Biosciences)”: the “regulation of PD-L1 across samples” value in test [1] is “only led to upregulation”. Further, the “PD-L1 Response” value in the test with H1650 cells, in the test on BT549 cells, in the test on H460 cells and with H292 cells was “Up” in each case.
